Experimental data as given in ChEMBL document CHEMBL1136571, “Design, synthesis and structure-activity relationships of benzoxazinone-based factor Xa inhibitors” (Bioorg Med Chem Lett, 2003).

By UniProt entry, the sequences of proteins in these tests, tags left out. Residues count along the entry.
UniProt P00742, 41-179 limits assumed: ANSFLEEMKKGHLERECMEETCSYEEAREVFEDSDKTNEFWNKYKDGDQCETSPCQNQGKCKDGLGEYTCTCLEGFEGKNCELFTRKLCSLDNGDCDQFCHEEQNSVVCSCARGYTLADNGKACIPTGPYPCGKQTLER
UniProt P00742, 235-488 limits assumed: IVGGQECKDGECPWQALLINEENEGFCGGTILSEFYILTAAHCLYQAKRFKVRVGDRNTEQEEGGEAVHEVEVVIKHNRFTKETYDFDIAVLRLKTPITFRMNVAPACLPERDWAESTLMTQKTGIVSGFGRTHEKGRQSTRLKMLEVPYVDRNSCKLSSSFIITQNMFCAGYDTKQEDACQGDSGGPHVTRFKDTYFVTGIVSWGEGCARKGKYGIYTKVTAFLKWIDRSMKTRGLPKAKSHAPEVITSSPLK

Molecular target: Coagulation factor X (Homo sapiens, UniProt P00742)
Assay: Inhibitory concentration to factor Xa

Row | SMILES | IC50 [nM]
1 | CC(=N)N1CCC(Oc2ccc3c(c2)OCC(=O)N3Cc2cccc(-c3cccc(C(=N)N)c3)c2)CC1 | 4
2 | CS(=O)(=O)N(Cc1ccc2ccc(C(=N)N)cc2c1)c1ccc(C(=O)N2CCCC2)cc1 | 1050
